## Measured affinities in a library of Ab-95 light chain variants

The target is the same throughout: PDVDLGDISGINAS, from the HR2 region of SARS-CoV-2 spike.

Parent: Ab-95, a human scFv built as VH, a 15-residue (Gly4Ser)3 linker, VL. Only the CDRs of the light chain vary.
VH: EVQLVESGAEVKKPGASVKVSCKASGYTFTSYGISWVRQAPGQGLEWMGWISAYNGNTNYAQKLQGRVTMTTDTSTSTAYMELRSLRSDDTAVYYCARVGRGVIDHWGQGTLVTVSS
VL: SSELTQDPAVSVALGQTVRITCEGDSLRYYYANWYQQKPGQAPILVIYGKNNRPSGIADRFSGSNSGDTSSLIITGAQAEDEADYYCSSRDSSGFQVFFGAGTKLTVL

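Phage display of a naive human antibody library on the peptide gave the parent. In library AAYL52, one, two or three CDR residues were substituted; doubles and triples were drawn at random. Affinity was read by AlphaSeq, a pooled yeast mating assay with surface-displayed partners. Pairs that bind mate more often; barcode pairs of the diploids are counted by sequencing. Each replicate has its own calibration line, from reference interactions of the BCL2 family. The assay was run in three technical replicates.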

Positions count from residue 1 of the parent VL; R28I puts I in place of R. All variants listed here change K50 of the VL, counted from its first residue. Kd is apparent (estimated from mating counts) and averaged on the log scale over replicates with a signal. Smaller is tighter. "nd" marks a missing value. The strain was present, yet no cells mated with the target were sequenced in any replicate, which points to weak or no binding. Background: pairings of library AAYL52 with three empty control strains gave a value in 28% of cases (median 8.2 µM, 5th percentile 800 nM). Values in that range, when seen in few replicates, are hard to tell from nonspecific mating. For each scFv, signals with the empty controls are counted beside the result. Parent in this assay: reference entry 200 nM, copy in this library 180 nM.

With R28I+K50S+N51S the result was 4.1 µM (3 of 3 replicates; controls 5 of 9). The variant K50C+S92G+G94P showed 8.7 µM (2 of 3 replicates; controls 4 of 9). For G24S+K50P+R53W, the assay gave 6.5 µM (1 of 3 replicates; controls 4 of 9). With K50Y+P54I+F95V the result was 13 µM (2 of 3 replicates; controls 2 of 9). The variant K50I+S89C+S93R showed 600 nM (3 of 3 replicates; controls 5 of 9).

The variant Y29C+Y30W+K50E showed 140 nM (3 of 3 replicates; controls 3 of 9). For E23T+K50G+Q96W, the assay gave 190 nM (3 of 3 replicates; controls 1 of 9). For Y31N+K50M+R90W, the assay gave 340 nM (3 of 3 replicates; controls 4 of 9). The variant Y30D+K50I showed 130 nM (3 of 3 replicates; controls 1 of 9). The variant K50F+R53S+S55L gave 13 µM (2 of 3 replicates; controls 1 of 9).

The variant K50H showed 150 nM (3 of 3 replicates; controls 3 of 9). With A32N+K50V+F95Y the result was 500 nM (3 of 3 replicates; controls 4 of 9). With N33Y+K50H+S55D the result was 25 µM (2 of 3 replicates; controls 5 of 9). The variant Y30A+K50D+R90N showed 20 nM (3 of 3 replicates; controls 3 of 9). With E23K+Y29T+K50N the result was 23 nM (3 of 3 replicates; controls 6 of 9).

For K50E+S93I, the assay gave 2.3 µM (3 of 3 replicates; controls 4 of 9). The variant G24W+K50F+N51V gave 31 µM (2 of 3 replicates; controls 3 of 9). For R28P+N33K+K50D, the assay gave 560 nM (3 of 3 replicates; controls 3 of 9). With R28W+K50Y the result was 3.0 µM (2 of 3 replicates; controls 3 of 9). The variant K50V+G94Y+F98R showed 2.4 µM (3 of 3 replicates; controls 2 of 9).

The variant K50P+N52V+S88L gave 2.8 µM (3 of 3 replicates; controls 1 of 9). For G24I+K50D+R90S, the assay gave 6.5 µM (2 of 3 replicates; controls 2 of 9). The variant S26C+K50S+S55D gave 400 nM (3 of 3 replicates; controls 2 of 9). The variant G24N+K50D+D91G showed 9.9 µM (2 of 3 replicates; controls 1 of 9). The variant A32M+K50W+G94I gave nd (0 of 3 replicates; controls 1 of 9).

With Y30K+K50P the result was 6.5 nM (3 of 3 replicates; controls 3 of 9). For K50P+N52G, the assay gave 150 nM (3 of 3 replicates; controls 6 of 9). With S26C+K50M+N52V the result was 14 µM (1 of 3 replicates; controls 1 of 9). The variant Y30T+K50H+F98S gave 44 nM (3 of 3 replicates; controls 4 of 9). The variant K50N+P54E+F98P gave 2.8 µM (2 of 3 replicates; controls 2 of 9).

The variant Y30C+K50L+S89R showed 1.8 µM (3 of 3 replicates; controls 1 of 9). With G49Q+K50P+G94E the result was 210 µM (1 of 3 replicates; controls 5 of 9). The variant Y30T+K50I+N51P showed 14 µM (3 of 3 replicates; controls 3 of 9).

Excerpt, the final 5 entries:

{"changes": "Y30T+K50H+F98S", "Kd (apparent)": "44 nM", "detected": "3 of 3", "signal with controls": "4 of 9"}
{"changes": "K50N+P54E+F98P", "Kd (apparent)": "2.8 µM", "detected": "2 of 3", "signal with controls": "2 of 9"}
{"changes": "Y30C+K50L+S89R", "Kd (apparent)": "1.8 µM", "detected": "3 of 3", "signal with controls": "1 of 9"}
{"changes": "G49Q+K50P+G94E", "Kd (apparent)": "210 µM", "detected": "1 of 3", "signal with controls": "5 of 9"}
{"changes": "Y30T+K50I+N51P", "Kd (apparent)": "14 µM", "detected": "3 of 3", "signal with controls": "3 of 9"}

Data: MIT Lincoln Laboratory AlphaSeq set, Engelhart et al. 2022, doi:10.1038/s41597-022-01779-4, as distributed in FLAb.